Values quoted from earlier work as cited in paper PMC3063522 (Journal of agricultural and food chemistry, 2011).

Settings: homologous standards for the HPLC regression; cited from earlier work

CCCCc1ccccc1 [butylbenzene]
log P (known constants of standards): 4.26
